Reference: PubChem BioAssay (NCI)
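96-well plates; 48 h exposure; 5 concentrations. Endpoints by linear interpolation between flanking doses. Not reached: highest tested concentration assigned. GI50 is the concentration that inhibits growth by half. TGI is the concentration that stops growth completely.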

What was measured:
Assay in all cases: DTP human tumour cell line panel, 48 h
[1] = tested on: T-47D breast
[2] = tested on: HOP-92 NSCLC
[3] = tested on: HT29 colon
[4] = tested on: RPMI-8226 leukemia
[5] = tested on: MCF7 breast
[6] = tested on: HCT-116 colon
[7] = tested on: A549 NSCLC
[8] = tested on: HL-60(TB) leukemia
[9] = tested on: HCT-15 colon
[10] = tested on: M14 melanoma
[11] = tested on: RXF 393 renal
[12] = tested on: NCI-H226 lung
[13] = tested on: UACC-62 melanoma
[14] = tested on: LOX IMVI melanoma
[15] = tested on: SK-MEL-28 melanoma
[16] = tested on: OVCAR-3 ovarian
[17] = tested on: SN12C renal
[18] = tested on: NCI-H23 lung
[19] = tested on: OVCAR-8 ovarian
[20] = tested on: SF-295 CNS
[21] = tested on: NCI-H522 lung
[22] = tested on: MDA-MB-435
[23] = tested on: NCI/ADR-RES ovarian
[24] = tested on: MDA-MB-231 breast
[25] = tested on: HS 578T breast
[26] = tested on: EKVX NSCLC
[27] = tested on: SNB-19 CNS
[28] = tested on: A498 renal
[29] = tested on: 786-0 renal
[30] = tested on: SK-MEL-2 melanoma
[31] = tested on: MOLT-4 leukemia
[32] = tested on: SR leukemia
[33] = tested on: CCRF-CEM leukemia
[34] = tested on: NCI-H322M lung
[35] = tested on: DU-145 prostate
[36] = tested on: HOP-62 NSCLC
[37] = tested on: OVCAR-4 ovarian
[38] = tested on: SF-539 CNS
[39] = tested on: UO-31 renal
[40] = tested on: CAKI-1 renal
[41] = tested on: SK-MEL-5 melanoma
[42] = tested on: PC-3 prostate
[43] = tested on: SF-268 CNS
[44] = tested on: SNB-75 CNS
[45] = tested on: SK-OV-3 ovarian
[46] = tested on: SW-620 colon
[47] = tested on: IGROV1 ovarian
[48] = tested on: KM12 colon
[49] = tested on: MALME-3M melanoma
[50] = tested on: ACHN renal
[51] = tested on: COLO 205 colon
[52] = tested on: OVCAR-5 ovarian
[53] = tested on: K-562 leukemia
[54] = tested on: MDA-N
[55] = tested on: BT-549 breast
[56] = tested on: U251 CNS

O=c1[nH]c2cc([N+](=O)[O-])c(N/N=C/C=C/c3ccc([N+](=O)[O-])o3)c([N+](=O)[O-])c2[nH]1 showed a GI50 [1] of 8.89 µM, a TGI [1] of 22.6 µM and a GI50 [2] of 14.9 µM. The TGI [2] was 33.1 µM, the GI50 [3] was 22.7 µM and the TGI [3] was greater than 100 µM. For the same compound, the GI50 [4] was 13.9 µM, the TGI [4] was greater than 100 µM and the GI50 [5] was 3.29 µM. The TGI [5] was 15.1 µM, the GI50 [6] was 8.93 µM and the TGI [6] was 31.6 µM. For the same compound, the GI50 [7] was 38.4 µM, the TGI [7] was greater than 100 µM and the GI50 [8] was 3.3 µM. The TGI [8] was 18 µM, the GI50 [9] was 10.1 µM and the TGI [9] was greater than 100 µM. It also gave a GI50 [10] of 8.18 µM, a TGI [10] greater than 100 µM and a GI50 [11] of 5.73 µM. The TGI [11] was 20.1 µM, the GI50 [12] was 10.4 µM and the TGI [12] was 27.3 µM. For the same compound, the GI50 [13] was 5.61 µM, the TGI [13] was 21.3 µM and the GI50 [14] was 5.4 µM. The TGI [14] was 32.9 µM, the GI50 [15] was 8.47 µM and the TGI [15] was 35.8 µM. For the same compound, the GI50 [16] was 4.18 µM, the TGI [16] was 14.2 µM and the GI50 [17] was 14.7 µM. It also gave a TGI [17] of 49.8 µM, a GI50 [18] of 17.1 µM and a TGI [18] of 43.6 µM. For the same compound, the GI50 [19] was 11.9 µM, the TGI [19] was 45.9 µM and the GI50 [20] was 18.4 µM. The TGI [20] was greater than 100 µM, the GI50 [21] was 6.9 µM and the TGI [21] was greater than 100 µM. The GI50 [22] was 4.54 µM, the TGI [22] was 19.7 µM and the GI50 [23] was greater than 100 µM. The TGI [23] was greater than 100 µM, the GI50 [24] was 17.8 µM and the TGI [24] was 49.6 µM. The GI50 [25] was 21.5 µM, the TGI [25] was 83.2 µM and the GI50 [26] was 59 µM. For the same compound, the TGI [26] was greater than 100 µM, the GI50 [27] was 14.7 µM and the TGI [27] was 80.1 µM. For the same compound, the GI50 [28] was 7.02 µM, the TGI [28] was 23.4 µM and the GI50 [29] was 11.5 µM. It also gave a TGI [29] of 41 µM, a GI50 [30] of 15.6 µM and a TGI [30] greater than 100 µM. The GI50 [31] was 6.97 µM, the TGI [31] was 70.2 µM and the GI50 [32] was 4.03 µM. It also gave a TGI [32] of 18 µM, a GI50 [33] of 1.45 µM and a TGI [33] of 4.35 µM. For the same compound, the GI50 [34] was 12.2 µM, the TGI [34] was 31.3 µM and the GI50 [35] was 5.64 µM. For the same compound, the TGI [35] was 18.1 µM, the GI50 [36] was 10.8 µM and the TGI [36] was 23.8 µM. The GI50 [37] was 16.9 µM, the TGI [37] was 36.1 µM and the GI50 [38] was 0.0252 µM. It also gave a TGI [38] of 2.39 µM, a GI50 [39] of 27.4 µM and a TGI [39] greater than 100 µM. The GI50 [40] was 17.2 µM, the TGI [40] was 36.8 µM and the GI50 [41] was 3.36 µM. The TGI [41] was 10.9 µM, the GI50 [42] was 5.34 µM and the TGI [42] was 27.3 µM. The GI50 [43] was 17.3 µM, the TGI [43] was greater than 100 µM and the GI50 [44] was 13.4 µM. The TGI [44] was 30 µM, the GI50 [45] was 23.6 µM and the TGI [45] was 61.8 µM. For the same compound, the GI50 [46] was 11.6 µM, the TGI [46] was greater than 100 µM and the GI50 [47] was 12.8 µM. It also gave a TGI [47] of 36.2 µM, a GI50 [48] of 5.67 µM and a TGI [48] of 19.2 µM. It also gave a GI50 [49] of 8.86 µM, a TGI [49] of 39 µM and a GI50 [50] of 4.33 µM. The TGI [50] was 17.3 µM, the GI50 [51] was 2.76 µM and the TGI [51] was 13.3 µM. For the same compound, the GI50 [52] was 55.3 µM, the TGI [52] was greater than 100 µM and the GI50 [53] was 14.8 µM. For the same compound, the TGI [53] was 59.2 µM, the GI50 [54] was 6.25 µM and the TGI [54] was 56.1 µM. It also gave a GI50 [55] of 13.3 µM, a TGI [55] of 36.8 µM and a GI50 [56] of 9.95 µM. It also gave a TGI [56] of 33.8 µM.
